{"sequences": {"note": "Sequences of proteins named here, by UniProt entry; tags and fusion partners are left off. A change or cut given only in a name is not applied to a line headed by its entry.", "UniProt P35354": "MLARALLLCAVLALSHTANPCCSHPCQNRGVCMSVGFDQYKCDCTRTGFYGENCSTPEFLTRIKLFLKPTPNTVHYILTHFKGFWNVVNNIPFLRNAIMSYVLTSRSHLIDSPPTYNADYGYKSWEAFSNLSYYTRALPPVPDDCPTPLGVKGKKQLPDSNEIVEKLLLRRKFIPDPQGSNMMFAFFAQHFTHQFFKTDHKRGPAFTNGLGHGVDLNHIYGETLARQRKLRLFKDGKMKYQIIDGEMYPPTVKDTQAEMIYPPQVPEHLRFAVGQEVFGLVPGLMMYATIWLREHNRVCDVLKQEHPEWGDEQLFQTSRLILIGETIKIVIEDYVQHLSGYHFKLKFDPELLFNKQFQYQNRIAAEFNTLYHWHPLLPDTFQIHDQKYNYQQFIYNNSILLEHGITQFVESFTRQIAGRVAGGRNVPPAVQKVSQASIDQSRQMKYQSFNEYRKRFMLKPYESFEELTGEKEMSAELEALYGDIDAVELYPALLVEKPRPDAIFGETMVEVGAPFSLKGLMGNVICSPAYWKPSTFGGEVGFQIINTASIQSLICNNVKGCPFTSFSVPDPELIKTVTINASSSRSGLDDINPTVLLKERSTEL", "UniProt P23219": "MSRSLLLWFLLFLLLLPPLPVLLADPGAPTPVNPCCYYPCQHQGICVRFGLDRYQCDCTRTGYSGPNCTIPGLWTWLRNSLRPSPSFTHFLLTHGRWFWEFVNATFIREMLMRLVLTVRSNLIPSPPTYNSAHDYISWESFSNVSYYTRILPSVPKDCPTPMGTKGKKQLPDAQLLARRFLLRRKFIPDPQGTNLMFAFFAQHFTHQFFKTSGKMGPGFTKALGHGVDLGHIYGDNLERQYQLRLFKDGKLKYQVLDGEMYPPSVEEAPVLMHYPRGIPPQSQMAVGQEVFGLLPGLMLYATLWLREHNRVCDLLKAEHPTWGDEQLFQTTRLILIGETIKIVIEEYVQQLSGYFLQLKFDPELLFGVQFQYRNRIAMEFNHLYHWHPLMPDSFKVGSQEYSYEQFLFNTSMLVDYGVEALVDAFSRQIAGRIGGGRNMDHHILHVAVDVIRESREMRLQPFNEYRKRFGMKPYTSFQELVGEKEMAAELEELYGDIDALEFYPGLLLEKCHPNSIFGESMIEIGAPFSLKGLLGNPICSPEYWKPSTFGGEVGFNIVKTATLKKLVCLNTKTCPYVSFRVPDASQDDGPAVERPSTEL"}, "source": "ChEMBL document CHEMBL1124310", "about": "“Antiinflammatory 2,6-di-tert-butyl-4-(2-arylethenyl)phenols” (J Med Chem, 1989)", "target": "Cyclooxygenase (Homo sapiens, UniProt P35354+P23219)", "assay": "Inhibitory concentration required for inhibition of Prostaglandin G/H synthase", "format": "functional", "data": [{"molecule": "CC(C)(C)c1cc(/C=C/c2cccnc2)cc(C(C)(C)C)c1O", "values": [{"measurement": "IC50", "value": 670, "unit": "nM"}]}]}
